Biological target: T1, SGLT1 protein (Mus musculus, UniProt Q9QXI6)
T1 sequence (Q9QXI6 whole entry): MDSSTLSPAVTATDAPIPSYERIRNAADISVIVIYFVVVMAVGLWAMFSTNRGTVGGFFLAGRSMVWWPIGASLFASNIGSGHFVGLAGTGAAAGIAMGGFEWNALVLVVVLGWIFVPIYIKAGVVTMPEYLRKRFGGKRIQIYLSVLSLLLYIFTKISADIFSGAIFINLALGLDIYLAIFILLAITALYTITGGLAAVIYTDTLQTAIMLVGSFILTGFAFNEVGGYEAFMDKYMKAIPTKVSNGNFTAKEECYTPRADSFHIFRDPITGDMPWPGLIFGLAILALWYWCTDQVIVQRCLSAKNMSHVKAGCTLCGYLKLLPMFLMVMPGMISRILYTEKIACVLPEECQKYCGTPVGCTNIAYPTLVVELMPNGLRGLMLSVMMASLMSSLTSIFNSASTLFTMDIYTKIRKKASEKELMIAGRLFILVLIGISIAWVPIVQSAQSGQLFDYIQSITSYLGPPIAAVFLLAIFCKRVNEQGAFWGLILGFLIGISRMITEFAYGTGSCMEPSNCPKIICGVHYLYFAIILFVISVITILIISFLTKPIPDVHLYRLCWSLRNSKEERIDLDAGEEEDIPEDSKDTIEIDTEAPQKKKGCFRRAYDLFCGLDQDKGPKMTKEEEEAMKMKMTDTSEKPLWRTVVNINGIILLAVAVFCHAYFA
Test: Inhibition Assay

SMILES: CCOc1ccc(Cc2cc(C34OCC(CO)(O3)C(O)C(O)C4O)ccc2Cl)c(F)c1F (single isomer, unassigned) [US8609622, 3]
- IC50: > 2000 nM

— BindingDB's records for patent US8609622 (Shanghai Hengrui Pharmaceutical, 2013)
